# Apparent affinities of Ab-91 variants for a coronavirus HR2 peptide

The target is the same throughout: PDVDLGDISGINAS, from the HR2 region of SARS-CoV-2 spike.

Parent scFv Ab-91: VL joined to VH by a (GGGGS)3 linker. Changes lie in the heavy chain CDRs alone.
VL: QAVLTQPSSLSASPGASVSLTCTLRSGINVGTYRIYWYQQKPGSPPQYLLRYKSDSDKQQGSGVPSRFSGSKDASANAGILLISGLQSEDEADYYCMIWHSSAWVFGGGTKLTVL
VH: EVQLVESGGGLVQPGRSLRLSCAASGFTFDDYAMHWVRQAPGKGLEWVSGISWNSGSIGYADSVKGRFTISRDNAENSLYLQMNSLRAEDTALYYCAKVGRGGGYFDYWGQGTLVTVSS

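Library AAYL51 holds single substitutions and randomly drawn double and triple substitutions in the CDRs. The assay is AlphaSeq: two haploid yeast populations carry antibody and antigen on their surface. Mating (16 h, 30 °C) was followed by selection of diploids and sequencing of their barcodes. Read counts were normalised to the haploid input and turned into Kd by a linear fit to BCL2-family pairs of known affinity, for each replicate. There are three technical replicates.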

Positions count from residue 1 of the parent VH; T28K puts K in place of T. All variants listed here change A33 of the VH, counted from its first residue. Values are apparent Kd, the geometric mean of the replicates that gave a signal; lower means stronger binding. "nd" means that the variant was in the library but no mating with the target was seen in any replicate; the authors take this as a sign of poor binding, and no number exists. Empty control strains, which show no peptide, gave a signal in 21% of pairings with library AAYL51; the median was 34 µM and 95% of these signals were weaker than 1.8 µM. No background was subtracted. The control count says in how many pairings with the empty strains this scFv gave a signal.

Variant T28K A33W S52C gave 52 µM (1 of 3 replicates; controls 2 of 9). For A33I G102K G103N, the assay gave 2.5 µM (1 of 3 replicates; controls 0 of 9). Variant A33K H35W Y105W gave 4.8 µM (1 of 3 replicates; controls 2 of 9). Variant D31T A33H G100V gave nd (0 of 3 replicates; controls 0 of 9). Variant A33M S55A G100E gave 2.9 nM (3 of 3 replicates; controls 2 of 9). With A33R N54S V64I the result was nd (0 of 3 replicates; controls 1 of 9). For F27L A33D, the assay gave 15 µM (1 of 3 replicates; controls 1 of 9). Variant A33S G56M V64L gave 6.2 µM (2 of 3 replicates; controls 0 of 9).

With Y32H A33V the result was 95 µM (2 of 3 replicates; controls 2 of 9). With A33N D62L R101I the result was nd (0 of 3 replicates; controls 2 of 9). With A33E S57V A61G the result was nd (0 of 3 replicates; controls 0 of 9). With T28N A33N G104T the result was 47 µM (2 of 3 replicates; controls 3 of 9). With A33T I51A V99S the result was 17 µM (1 of 3 replicates; controls 3 of 9). For A33N G100H Y108M, the assay gave 65 µM (1 of 3 replicates; controls 0 of 9). Variant F29T A33H H35G gave nd (0 of 3 replicates; controls 1 of 9). With G26I A33V G100T the result was 110 µM (1 of 3 replicates; controls 1 of 9).

Variant T28E A33L D107H gave 69 µM (2 of 3 replicates; controls 3 of 9). For A33S M34I Y105P, the assay gave 1.5 µM (3 of 3 replicates; controls 3 of 9). For F29M A33V D62L, the assay gave nd (0 of 3 replicates; controls 3 of 9). For A33Y, the assay gave nd (0 of 3 replicates; controls 1 of 9). With A33H W53G G56S the result was 67 µM (2 of 3 replicates; controls 3 of 9). For A33K G56I F106P, the assay gave nd (0 of 3 replicates; controls 1 of 9). With A33E G59H G104E the result was 34 µM (2 of 3 replicates; controls 7 of 9). For G26A A33Y V64A, the assay gave 530 µM (2 of 3 replicates; controls 2 of 9).

With D30T A33V D107Y the result was nd (0 of 3 replicates; controls 0 of 9). For A33M, the assay gave 80 µM (1 of 3 replicates; controls 1 of 9). Variant A33Q H35E Y108S gave nd (0 of 3 replicates; controls 3 of 9). With A33I M34G G104P the result was nd (0 of 3 replicates; controls 0 of 9). For Y32N A33H, the assay gave 18 µM (1 of 3 replicates; controls 8 of 9). For A33M V99N G102D, the assay gave nd (0 of 3 replicates; controls 1 of 9). With A33S Y60F V99D the result was nd (0 of 3 replicates; controls 2 of 9). With A33D Y105C the result was nd (0 of 3 replicates; controls 0 of 9).

With D30C A33H F106E the result was 780 µM (1 of 3 replicates; controls 0 of 9). Variant A33H G50C G56R showed nd (0 of 3 replicates; controls 0 of 9). Variant A33Y M34N gave nd (0 of 3 replicates; controls 0 of 9). With F29S A33T G59C the result was 780 µM (1 of 3 replicates; controls 4 of 9). Variant A33M D62L G103L gave 5.2 µM (2 of 3 replicates; controls 3 of 9). With A33R G56R D62H the result was 1.5 mM (1 of 3 replicates; controls 4 of 9). With F29L A33V I51D the result was 10 µM (1 of 3 replicates; controls 2 of 9). With A33I M34G K65A the result was nd (0 of 3 replicates; controls 0 of 9).

For A33Q W53T S57C, the assay gave 71 µM (1 of 3 replicates; controls 7 of 9). Variant A33R K65V D107G gave 150 µM (2 of 3 replicates; controls 2 of 9). Variant A33Q S52L gave nd (0 of 3 replicates; controls 0 of 9). Variant A33W Y60R A61G gave nd (0 of 3 replicates; controls 0 of 9). Variant G26A A33K N54V showed 250 µM (1 of 3 replicates; controls 3 of 9). For A33V H35C D62T, the assay gave nd (0 of 3 replicates; controls 0 of 9).

Excerpt, the final 2 entries:

changes	Kd	seen in	control signals
G26A A33K N54V	250 µM	1/3	3/9
A33V H35C D62T	nd	0/3	0/9

Source: Engelhart et al. 2022 (doi:10.1038/s41597-022-01779-4), MIT Lincoln Laboratory and A-Alpha Bio; data file from the FLAb repository.